Measurements reported in patent publication US10202373B2, “Heteroaryls and uses thereof” (MILLENNIUM PHARMACEUTICALS, INC., priority 2014, dated 2019).

Amino acid sequences for entries named in this document (tags omitted).
UniProt Q8NEB9, whole entry: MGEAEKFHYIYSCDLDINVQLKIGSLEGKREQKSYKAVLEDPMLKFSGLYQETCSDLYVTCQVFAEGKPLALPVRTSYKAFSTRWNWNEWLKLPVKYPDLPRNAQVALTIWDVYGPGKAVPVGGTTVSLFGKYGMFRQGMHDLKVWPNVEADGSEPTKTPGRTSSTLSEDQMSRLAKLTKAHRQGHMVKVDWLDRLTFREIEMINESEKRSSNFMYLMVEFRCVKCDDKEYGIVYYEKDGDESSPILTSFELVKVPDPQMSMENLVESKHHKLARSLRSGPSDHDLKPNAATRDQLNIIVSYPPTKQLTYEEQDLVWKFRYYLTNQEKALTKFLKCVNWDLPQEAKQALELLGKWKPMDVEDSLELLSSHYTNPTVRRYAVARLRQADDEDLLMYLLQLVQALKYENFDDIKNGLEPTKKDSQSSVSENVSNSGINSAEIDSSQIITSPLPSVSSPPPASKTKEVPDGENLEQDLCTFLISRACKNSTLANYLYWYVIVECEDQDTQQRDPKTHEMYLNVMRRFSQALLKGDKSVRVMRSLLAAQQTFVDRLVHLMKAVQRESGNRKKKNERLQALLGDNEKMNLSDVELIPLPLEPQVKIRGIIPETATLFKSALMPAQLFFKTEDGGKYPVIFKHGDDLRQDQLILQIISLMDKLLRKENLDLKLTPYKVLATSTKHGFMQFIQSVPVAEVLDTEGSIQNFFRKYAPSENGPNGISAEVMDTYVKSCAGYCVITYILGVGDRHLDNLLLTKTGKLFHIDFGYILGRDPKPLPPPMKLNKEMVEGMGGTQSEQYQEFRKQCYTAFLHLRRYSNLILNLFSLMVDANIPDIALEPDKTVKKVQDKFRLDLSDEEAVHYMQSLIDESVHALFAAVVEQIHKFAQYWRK

Target: human VPS34 (Homo sapiens (Human), UniProt Q8NEB9)
Experiment: Human VPS34 enzyme assay (Adapta TR-FRET)
Type: biochemical
Experimental: VPS34 (accession number GB:BC033004) was cloned into pDEST20-Thombin as N-terminal GST tagged fusion proteins using the Gateway system (Invitrogen, catalog#11804-013). The sequences were verified before recombinant protein expression using the Baculovirus Expression System with Gateway® Technology. For expression VPS34 was infected at 1 MOI in SF9 cells and harvested 72 hours post infection. For purification, VPS34 is purified by Glutathione Sepharose 4 Fast Flow (GE Healthcare #17-5132-03) followed by HiTrap Q (GE Healthcare #17-1153-01). Human VPS34 Enzyme Assay Method 100 nL compounds in DMSO are added to wells of a 384 well microtitre plate (Greiner 780076). At room temperature: 5 ul VPS34 reaction buffer (Invitrogen Assay Buffer Q (diluted 1 in 5 with nanopure water) plus 2 mM DTT and 2 mM MnCl2) containing ATP (20 uM, Promega) and 200 uM PI-PS substrate (Invitrogen PV5122) is added followed immediately by 5 ul VPS34 reaction buffer (as above) containing VPS34 (5 nM, Millennium Protein Sciences Group) and the mixture is incubated with shaking at room temperature for 1 hour. […] The plates are then incubated for 30 minutes at room temperature with shaking and then read on a BMG PheraStar Plus reader. For the assay methods described above, test compound percent inhibition, at various concentrations, is calculated relative to control (DMSO and EDTA) treated samples. […]

IC50 (human VPS34 enzyme assay, IC50 ranges): 50 to 100 nM | Percent Inhibition (inhibition of VPS34 at a 1.11 μM concentration): >99%
SMILES: CC(=O)Nc1cc(-c2cnc(C)c3[nH]ccc23)ccn1
